Test system: β2AR expressing cells
Details: mitomycin treatment for 2 hours of β2AR expressing HEK293 cells

Q: With CO[C@@]12[C@H](COC(N)=O)C3=C(C(=O)C(C)=C(N)C3=O)N1C[C@@H]1N[C@@H]12 [Miyotmycin C, mitomycin C] as the molecule, how does the toxicity to cells read?
A: significant toxicity
